Experimental data taken from ChEMBL document CHEMBL1255531, “Utilization of a nitrogen-sulfur nonbonding interaction in the design of new 2-aminothiazol-5-yl-pyrimidines as p38α MAP kinase inhibitors” (Bioorg Med Chem Lett, 2010).

Protein sequences, listed by entry. Tags and fused reporters are not part of them.
UniProt Q16539, whole entry: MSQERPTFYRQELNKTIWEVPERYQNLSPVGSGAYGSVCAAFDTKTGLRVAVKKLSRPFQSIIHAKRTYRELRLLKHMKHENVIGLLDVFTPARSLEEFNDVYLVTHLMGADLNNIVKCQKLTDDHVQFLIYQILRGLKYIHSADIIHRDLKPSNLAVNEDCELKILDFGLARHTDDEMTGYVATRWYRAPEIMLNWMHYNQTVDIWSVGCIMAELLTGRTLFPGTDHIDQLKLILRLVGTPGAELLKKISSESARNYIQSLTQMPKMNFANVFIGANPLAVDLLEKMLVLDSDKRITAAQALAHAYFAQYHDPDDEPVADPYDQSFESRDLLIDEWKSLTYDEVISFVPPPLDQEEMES

Target: Mitogen-activated protein kinase 14 (Homo sapiens, UniProt Q16539)
Assay: Inhibition of bacterially expressed activated p38alpha pre-incubated 10 mins measured after 45 mins by scintillation counting

IC50: 7 nM
SMILES: CCNC(=O)NCc1ccccc1-c1cc(-c2cnc(NC(C)C)s2)nc(NCCN(C)C)n1
